Patent US20250388584A1, “TPK AGONIST AND METHOD FOR TREATING NEURODEGENERATIVE DISEASES USING SAME” (SHANGHAI RAISING PHARMACEUTICAL CO., LTD., priority 2022, published 2025)

Amino acid sequences for entries named in this document (tags omitted).
UniProt Q9H3S4, whole entry: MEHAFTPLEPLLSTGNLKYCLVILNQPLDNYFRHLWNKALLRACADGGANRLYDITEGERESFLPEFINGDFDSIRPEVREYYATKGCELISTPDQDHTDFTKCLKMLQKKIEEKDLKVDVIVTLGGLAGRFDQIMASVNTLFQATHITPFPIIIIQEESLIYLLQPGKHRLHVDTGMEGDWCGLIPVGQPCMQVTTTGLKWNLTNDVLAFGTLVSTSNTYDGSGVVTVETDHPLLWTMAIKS

Target: TPK enzyme (Homo sapiens (Human), UniProt Q9H3S4)
Test: TPK enzyme activity test
Details: calculated with the effect of DMSO on TPK enzyme activity as 100%; tested form: 2HCl

- Emax: 132.31%
SMILES: OCCN1CCN(CCCN2c3ccccc3Sc3ccc(C(F)(F)F)cc32)CC1
